From publication PMC2009897, “Comparison of mutagenesis and malignant transformation by dihydrodiols from benz[a]anthracene and 7,12-dimethylbenz[a]anthracene” (British Journal of Cancer, 1979)

How the values were obtained:
[1] = test system: V79 Chinese hamster cells; experiment: Cytotoxicity (plating efficiency) in V79 Chinese hamster cells; assay type: cell-based; settings: 3 h
[2] = test system: M2 mouse fibroblasts; experiment: Plating efficiency of M2 mouse fibroblasts; assay type: cell-based; settings: 24 h
[3] = test system: M2 mouse fibroblasts; experiment: Malignant transformation in M2 mouse fibroblasts; settings: 24 h
[4] = test system: M2 mouse fibroblasts; settings: ref Marquardt et al., cited from earlier work
[5] = test system: V79 Chinese hamster cells; settings: ref Marquardt et al., 1977b; cited from earlier work
[6] = 0.2 µg/ml, Table II (control for BA experiments)
[7] = 0.4 µg/ml, Table I (control for DMBA experiments)
[8] = 0.4 µg/ml, Table II (control for BA experiments)

N-Methyl-N'-nitro-N-nitrosoguanidine
Plating efficiency (%) in V79 cells [1, 6]: 74%
Plating efficiency (%) in V79 cells [1, 7]: 31%
Plating efficiency (%) in V79 cells [1, 8]: 56%
Plating efficiency (%) in M2 cells [2, 6]: 32%
Plating efficiency (%) in M2 cells [2, 7]: 21%
Plating efficiency (%) in M2 cells [2, 8]: 26%
Transformed foci/103 survivors [3, 6]: 3.0 foci/103 survivors
Transformed foci/dishes treated [3, 6]: 23/24
Transformed foci/103 survivors [3, 7]: 5.3 foci/103 survivors
Transformed foci/dishes treated [3, 7]: 10/9
Transformed foci/dishes treated [3, 8]: 25/19

7,8-dihydrodiol-9,10-epoxide of benzo[a]pyrene
Induction of transformations in M2 cells, anti versus syn isomer ([4]; 1977a): more active

8,9-dihydrodiol of 7-methylbenz[a]anthracene
Activity in V79 cells [5]: active
Activity in M2 cells (malignant transformation), earlier observations [4]; 1976: active
